Target: T1, mouse oxMIF (mouse, UniProt P34884 2-115, oxidized isoform (mild oxidation or 0.2% Proclin300; endogenous in diseased mice); the modified residues are not stated)
T1 construct: also called murine oxMIF; recombinant moMIF treated with Proclin300
Experiment: flow cytometry on whole blood of E. coli challenged mice, gated on granulocytes (GR1) and monocytes (CD14); 300 nM RAB9, detected with R-PE anti-human IgG
Experimental: Blood from PBS- or E. coli-challenged mice was stained in Cell Staining Buffer (Biologend) with either Alexa700-labeled anti-CD3ε (for T cells) and PerCP-Cy5.5-labeled anti-Ly6G (for granulocytes) or APC-labeled anti-CD14 (for monocytes) and PE-Cy7-labeled anti-CD19 (for B cells) in parallel with 300 nM RAB9 or control IgG. After washing, the human antibodies were detected using the goat R-PE-labeled anti-human IgG antibodies. After washing, the red blood cells were lysed with the BD FACS™ Lysing solution (Becton Dickinson, Franklin Lakes, USA). Data acquisition was performed using a FACS™ Canto II (Becton Dickinson) with the DIVA™ software (software version 6; Becton Dickinson) and the data were analyzed using the FlowJo™ software (Treestar, Ashland, Oreg., USA).
The presence of oxMIF on the surface of the blood cells from peritonitic mice was analysed. Blood was harvested by cardiac puncture after 1, 3 or 21 h post-challenge, i.e. PBS for the control group and 2000 CFU E. coli for the peritonitic mice. The staining with RAB9 was performed on full blood and red cells were lysed before the analysis.

binding result: binds
B1: anti-MIF antibody RAB9 (antibody, human IgG4 S228P, kappa, V domains shown)
VH: EVQLLESGGGLVQPGGSLRLSCAASGFTFSIYSMNWVRQAPGKGLEWVSSIGSSGGTTYYADSVKGRFTISRDNSKNTLYLQMNSLRAEDTAVYYCAGSQWLYGMDVWGQGTTVTVSS
VL: DIQMTQSPSSLSASVGDRVTITCRSSQRIMTYLNWYQQKPGKAPKLLIFVASHSQSGVPSRFRGSGSETDFTLTISGLQPEDSATYYCQQSFWTPLTFGGGTKVEIKR
notes: Also deposited as plasmids DSM 25111 and DSM 25113; also called human anti-MIF monoclonal antibody RAB9; anti-oxMIF antibody RAB9

From US20140248638A1 (BAXALTA, published 2014)
